Source: ChEMBL document CHEMBL1131398, “First synthesis of alternating SATE-phosphotriester/phosphodiester prooligonucleotides on solid support” (Bioorg Med Chem Lett, 1998)

How the values were obtained:
[1] = Lipophilicity of compound evaluated by HPLC retention time on reverse phase C18 column
[2] = Half-life in the presence of pig liver esterase(PLE) was evaluated.; type: ADME, tissue-based, Sus scrofa; details: in vivo
[3] = Half-life in the presence of total cell extract(TCE) was evaluated.; type: ADME

Cc1cn([C@H]2C[C@H](OP(C)(=O)O)[C@@H](COP(C)(=O)O[C@H]3C[C@H](n4cc(C)c(=O)[nH]c4=O)O[C@@H]3COP(C)(=O)O[C@H]3C[C@H](n4cc(C)c(=O)[nH]c4=O)O[C@@H]3COP(=O)(OCCSC(=O)C(C)(C)C)O[C@H]3C[C@H](n4cc(C)c(=O)[nH]c4=O)O[C@@H]3COP(=O)(OCCSC(=O)C(C)(C)C)O[C@H]3C[C@H](n4cc(C)c(=O)[nH]c4=O)O[C@@H]3COP(=O)(OCCSC(=O)C(C)(C)C)O[C@H]3C[C@H](n4cc(C)c(=O)[nH]c4=O)O[C@@H]3COP(=O)(OCCSC(=O)C(C)(C)C)O[C@H]3C[C@H](n4cc(C)c(=O)[nH]c4=O)O[C@@H]3COP(=O)(OCCSC(=O)C(C)(C)C)O[C@H]3C[C@H](n4cc(C)c(=O)[nH]c4=O)O[C@@H]3COP(=O)(OCCSC(=O)C(C)(C)C)O[C@H]3C[C@H](n4cc(C)c(=O)[nH]c4=O)O[C@@H]3COP(C)(=O)O[C@H]3C[C@H](n4cc(C)c(=O)[nH]c4=O)O[C@@H]3COP(C)(=O)O[C@H]3C[C@H](n4cc(C)c(=O)[nH]c4=O)O[C@@H]3COP(C)(=O)O[C@H]3C[C@H](n4cc(C)c(=O)[nH]c4=O)O[C@@H]3CO)O2)c(=O)[nH]c1=O (stereo partly drawn)
Retention time [1]: 60.5 min | T1/2 [2]: 35 min | T1/2 [3]: 72 min
